In patent US20080286219A1, “Hydroquinone derivative skin brightening compounds” (priority 2007, published 2008):

System: Mushroom Tyrosinase (Sigma T3824)
Test: General in vitro tyrosinase inhibition assay (L-Dopa oxidation to dopachrome)
Type: biochemical
Settings: 0.5 mM L-Dopa, pH 7.0, 30° C., 475 nm, 18 Units Mushroom Tyrosinase

`O=S(=O)(O)OCCSc1cc(O)ccc1O` was tested. Which EC50 did it give?
The EC50 was 4.81 mM.
